Data reported in US11021493B2, “1,4-thiazine dioxide and 1,2,4-thiadiazine dioxide derivatives as beta-secretase inhibitors and methods of use” (AMGEN INC., priority 2016, dated 2021).

Chains of the proteins cited; added tags and fusions are not shown. Lines headed by an entry give the natural chain unless they say otherwise; changes in a name come on top.
UniProt P07339: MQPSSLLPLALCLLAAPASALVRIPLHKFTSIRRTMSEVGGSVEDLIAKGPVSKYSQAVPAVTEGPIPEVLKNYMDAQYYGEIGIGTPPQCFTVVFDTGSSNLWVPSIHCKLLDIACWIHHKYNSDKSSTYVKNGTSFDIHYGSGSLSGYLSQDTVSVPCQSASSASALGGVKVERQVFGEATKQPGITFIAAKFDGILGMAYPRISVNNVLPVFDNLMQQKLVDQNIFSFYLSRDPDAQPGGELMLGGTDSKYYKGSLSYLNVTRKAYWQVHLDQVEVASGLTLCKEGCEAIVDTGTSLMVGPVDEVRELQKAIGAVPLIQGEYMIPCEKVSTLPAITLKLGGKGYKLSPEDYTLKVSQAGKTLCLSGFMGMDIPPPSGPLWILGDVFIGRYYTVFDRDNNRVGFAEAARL
UniProt P56817: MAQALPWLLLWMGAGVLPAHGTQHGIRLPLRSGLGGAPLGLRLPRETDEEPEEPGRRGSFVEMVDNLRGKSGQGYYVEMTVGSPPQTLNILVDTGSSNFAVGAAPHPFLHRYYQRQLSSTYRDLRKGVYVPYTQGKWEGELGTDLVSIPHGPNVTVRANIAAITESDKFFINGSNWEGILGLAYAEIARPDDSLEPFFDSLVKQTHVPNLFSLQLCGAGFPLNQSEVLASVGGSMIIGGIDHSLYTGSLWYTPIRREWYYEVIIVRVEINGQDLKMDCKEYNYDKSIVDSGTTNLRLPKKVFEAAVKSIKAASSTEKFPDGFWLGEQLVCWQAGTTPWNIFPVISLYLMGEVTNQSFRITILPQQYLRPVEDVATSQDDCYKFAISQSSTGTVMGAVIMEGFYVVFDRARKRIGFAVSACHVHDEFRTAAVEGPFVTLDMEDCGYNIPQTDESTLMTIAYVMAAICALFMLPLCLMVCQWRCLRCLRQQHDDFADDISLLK
UniProt Q9Y5Z0: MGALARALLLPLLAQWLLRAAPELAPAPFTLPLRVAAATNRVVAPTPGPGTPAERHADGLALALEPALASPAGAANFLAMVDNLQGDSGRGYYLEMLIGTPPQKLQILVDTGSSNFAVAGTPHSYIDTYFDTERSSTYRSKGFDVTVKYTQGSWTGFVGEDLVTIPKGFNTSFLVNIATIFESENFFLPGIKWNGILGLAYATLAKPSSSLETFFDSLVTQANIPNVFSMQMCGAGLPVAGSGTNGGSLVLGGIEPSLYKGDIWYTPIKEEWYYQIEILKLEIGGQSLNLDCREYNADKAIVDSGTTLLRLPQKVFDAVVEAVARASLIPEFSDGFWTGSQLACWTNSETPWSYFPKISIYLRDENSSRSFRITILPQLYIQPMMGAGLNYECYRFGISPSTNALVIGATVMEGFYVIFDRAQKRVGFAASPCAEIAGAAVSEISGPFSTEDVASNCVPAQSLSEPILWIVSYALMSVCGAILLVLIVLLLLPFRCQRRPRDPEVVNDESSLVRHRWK

What was measured:
[1] = target: Cathepsin D (CatD) (Homo sapiens (Human), UniProt P07339); test: In vitro enzymatic Cathepsin D (CatD) FRET assay; format: biochemical; conditions: read-out: Cat D Enzyme IC50
[2] = target: T1, BACE1 (Homo sapiens (Human), UniProt P56817); test: In vitro enzymatic BACE1 FRET assay; format: biochemical; conditions: read-out: BACE1 Enzyme IC50
[3] = target: T1, BACE1; test: In vitro BACE1 cell-based assay (Aβ40 in conditioned medium of cells stably expressing APP, HTRF); conditions: read-out: BACE1 Cell IC50; Aβ40 in conditioned media after 24 h incubation
[4] = target: human recombinant BACE2 (Homo sapiens (Human), UniProt Q9Y5Z0); test: In vitro enzymatic BACE2 FRET assay; format: biochemical; conditions: read-out: BACE2 Enzyme IC50

## (1R,4R,5S)-2-amino-4-(2-fluoro-5-((Z)-2-fluoro-2-(tetrahydrofuran-2-yl)vinyl)phenyl)-1-(fluoromethyl)-4-methyl-8-thia-3-azabicyclo[3.2.1]oct-2-ene 8,8-dioxide
[1]
  IC50: 214000 nM
[2]
  IC50: 251 nM
[3]
  IC50: 972 nM
[4]
  IC50: 139 nM
